We go through one substance from US6365173B1, “Stereocomplex polymeric carriers for drug delivery” (Efrat Biopolymers Ltd., priority 1999, dated 2002).

This data set in a line: HSA release from PLA stereocomplex precipitates in phosphate buffer. The format is physicochemical. The following applies: precipitates with D-PLA/L-PLA or D-PLA (Mw=6,000) dispersed in phosphate buffer (pH 7.4) at 37° C. The protocol:
Human serum albumin (HSA, 100 mg) was stereocomplexed at 60° C. for 48 hours with a mixture of D-PLA (1 g, Mw=6,000) and L-PLA (1 g, Mw=6,000) or with D-PLA (2 g, Mw=6,000) or with DL-PLA in dioxane (50 ml). A precipitate was obtained for the D-PLA/L-PLA mixture and for the D-PLA solution while very little precipitate was detected for the DL-PLA solution. Accordingly, as determined by the Nynhidrin method for peptide and protein analysis, less than 5% of the HSA was detected in the acetonitrile solutions of the enantiomeric polymers, while most albumin was found in the acetonitrile solution of DL-PLA The precipitates were dispersed in phosphate buffer (pH 7.4) at 37° C. HAS was constantly released from the precipitates for 6 weeks.

As to Human serum albumin [HAS], the “time over which HSA was constantly released from the precipitates” value is recorded as 6 weeks.
